Data reported in patent publication US8106039B2, “Metal complex phosphatidyl-inositol-3-kinase inhibitors” (The Trustees Of The University Of Pennsylvania, priority 2008, dated 2012).

By UniProt entry, the sequences of proteins in these tests, tags left out. Residues count along the entry.
UniProt P48736, 144-1102 limits assumed: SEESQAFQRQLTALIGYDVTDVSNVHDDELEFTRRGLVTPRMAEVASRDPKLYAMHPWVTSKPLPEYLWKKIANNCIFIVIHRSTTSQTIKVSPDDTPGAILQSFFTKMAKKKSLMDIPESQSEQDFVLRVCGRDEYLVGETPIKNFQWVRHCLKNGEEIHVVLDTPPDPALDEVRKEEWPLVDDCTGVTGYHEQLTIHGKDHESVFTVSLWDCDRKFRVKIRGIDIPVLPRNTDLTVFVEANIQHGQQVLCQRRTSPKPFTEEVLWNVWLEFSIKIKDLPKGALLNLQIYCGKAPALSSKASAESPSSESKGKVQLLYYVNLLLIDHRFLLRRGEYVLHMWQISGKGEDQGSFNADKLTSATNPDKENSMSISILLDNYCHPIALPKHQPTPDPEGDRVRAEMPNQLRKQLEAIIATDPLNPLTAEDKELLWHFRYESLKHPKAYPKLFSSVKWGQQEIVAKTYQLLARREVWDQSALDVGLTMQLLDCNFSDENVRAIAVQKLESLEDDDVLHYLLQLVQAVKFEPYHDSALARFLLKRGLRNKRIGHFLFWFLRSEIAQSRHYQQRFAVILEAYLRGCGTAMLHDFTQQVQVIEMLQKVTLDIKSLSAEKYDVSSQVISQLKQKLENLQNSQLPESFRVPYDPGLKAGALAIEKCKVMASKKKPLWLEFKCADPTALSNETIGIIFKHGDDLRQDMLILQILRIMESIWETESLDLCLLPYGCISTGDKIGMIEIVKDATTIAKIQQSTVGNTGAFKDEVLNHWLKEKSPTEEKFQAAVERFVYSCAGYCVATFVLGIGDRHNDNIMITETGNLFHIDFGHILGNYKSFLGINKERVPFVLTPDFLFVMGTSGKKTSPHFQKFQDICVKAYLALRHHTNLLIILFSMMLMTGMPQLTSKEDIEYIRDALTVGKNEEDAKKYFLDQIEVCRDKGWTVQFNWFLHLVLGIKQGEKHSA

Target: T1, human PI3Kγ catalytic domain (Homo sapiens, UniProt P48736)
T1 construct: made in house; host or cells: baculovirus expression (virus obtained from the MRC, United Kingdom)
Assay: PI3K Kinase-Glo assay
Format: biochemical
Description: PI3K Kinase-Glo Assay. Recombinantly expressed human PI3Kγ catalytic domain was preincubated with various concentration of inhibitors with a final DMSO concentration of 2% in reaction buffer (20 mM Tris pH 7.5, 100 mM NaCl, 10 mM MgCl2) for 1 hour at room temperature before this mixture was added to a solution of 0.1 mg/mL D-myo-Phosphatidylinositol 4,5-biphosphate (PtdIns (4,5)P2, Echelon Biosciences) and 10 μM ATP. 14 pmoles PI3K was used in compounds DW12, DW12Me, EAd125 comparison and 1.4 pmoles PI3K was used for compounds E5, E5E2, E5E1 measurements. The kinase reaction was carried out in a 50 μL final volume in a 96-well microtiter plate at 37° C. for 3 hours before 50 μL Kinase-Glo® (Promega) developing solution was added into the mixture to generate a luminescence signal. The signal was recorded using the PerkinElmer Wallac 1420 luminometer using a luminescence filter. Data were processed and IC50 values were derived from using 2% DMSO and with no kinase as controls and a sigmoidal dose response curve fitting by GraphPad Prism.

- specificity for PI3Kγ relative to the other kinases profiled (4 μM, compared with E5E2, FIGS. 3B and 9): less specific
- PI3K inhibition / inhibitory potency (in words) (comparison among the inhibitors, FIG. 2C, FIG. 9): less potent
Compound: O=c1cc(N2CCOCC2)oc2c(-c3ccccc3)cccc12 [LY294002, 2-(4-morpholinyl)-8-phenyl-4H-1-benzopyran-4-one, reference compound]
